According to paper PMC11882778:

Target: human phosphatidylserine synthase 1 (human) (UniProt P48651)
Assay: cryo-EM structure; purified PSS1 in detergent micelles (GDN); apo, Ca2+-bound and Ca2+/L-serine-bound states; homodimer

- stoichiometry N: 2
Substance: human phosphatidylserine synthase 1 (from UniProt P48651 1-473) (enzyme)
